Experimental data taken from US11077196B2, “Abuse-deterrent pharmaceutical composition” (priority 2016, dated 2021).

System: laccase
Conditions: 1000 mg L−1 opioid, 10 Units laccase per ml, NaPi Buffer pH 7 50 mM

Q: How did the “oxygen concentration / laccase activity on the opioid” value turn out when `CN1CC[C@]23c4c5ccc(O)c4O[C@H]2C(=O)CC[C@H]3[C@H]1C5` [hydromorphone, 4,5[alpha]-epoxy-3-hydroxy-17-methyl-6-morphinanone] was run?
A: showed laccase activity
